This note sets out measurements from BindingDB's records for 20430631.

The chains behind the UniProt entries cited, without tags or fusion partners. Residues count along the entry.
UniProt P00915, 2-261 limits assumed: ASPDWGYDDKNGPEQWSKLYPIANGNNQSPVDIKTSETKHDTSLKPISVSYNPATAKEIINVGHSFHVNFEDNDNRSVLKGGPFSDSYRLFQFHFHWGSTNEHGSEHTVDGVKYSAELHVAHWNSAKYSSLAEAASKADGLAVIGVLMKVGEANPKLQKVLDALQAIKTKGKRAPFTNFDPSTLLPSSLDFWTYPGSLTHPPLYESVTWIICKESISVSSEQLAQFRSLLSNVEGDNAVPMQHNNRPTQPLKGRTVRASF

Assay [1] deals with Carbonic anhydrase 1 (Homo sapiens, UniProt P00915). Nature of the assay: Uncompetitive inhibition of human carbonic anhydrase 1 esterase activity by Lineweaver-Burke plot analysis.
The target of assay [2] is T1, Carbonic anhydrase 2 (Homo sapiens, UniProt P00918). Nature of the assay: Competitive inhibition of human carbonic anhydrase 2 esterase activity by Lineweaver-Burke plot analysis.
Assay [3] deals with T1, Carbonic anhydrase 2. Nature of the assay: Uncompetitive inhibition of human carbonic anhydrase 2 esterase activity by Lineweaver-Burke plot analysis.

Take `O=[N+]([O-])O[C@H]1C[C@H](O)[C@@H](O[N+](=O)[O-])C[C@@H]1O`: the inhibitory constant (Ki) (as a rule, the equilibrium dissociation constant of an inhibitor or competing ligand from its target) in assay [1] worked out at 19.9 mM; in assay [2], 0.239 mM.

For `O=[N+]([O-])O[C@H]1C[C@H](O[N+](=O)[O-])[C@@H](O)C[C@@H]1O`, the Ki in assay [1] came out at 19.3 mM; in assay [2] it was 0.172 mM.

In the case of `O=[N+]([O-])O[C@H]1CC[C@@H](O[N+](=O)[O-])[C@H](O)[C@@H]1O`, the Ki in assay [1] turned out to be 23.8 mM; in assay [3], 0.267 mM.
